From PubChem BioAssay AID2129 (The Scripps Research Institute Molecular Screening Center, 2009) come the findings set out here.

Chains of the proteins cited; added tags and fusions are not shown.
UniProt Q07817, whole entry: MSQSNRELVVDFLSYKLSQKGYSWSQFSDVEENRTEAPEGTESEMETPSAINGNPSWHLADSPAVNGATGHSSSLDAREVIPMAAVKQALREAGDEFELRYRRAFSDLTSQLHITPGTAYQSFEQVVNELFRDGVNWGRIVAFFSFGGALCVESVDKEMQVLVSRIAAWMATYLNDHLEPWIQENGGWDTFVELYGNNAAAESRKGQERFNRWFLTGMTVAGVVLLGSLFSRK

The list shows a part of the results, in another mix than the full data. Some salts and complexes are drawn in separate pieces, as the source files them; their charges need not balance. Activity calls are given as the source filed them.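 The calls were made as follows: active = inhibition above the mean of all tested compounds plus 3 SD, cutoff set per campaign (cut at about 30% in these data); inactive = the rest.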

This assay concerns the target Bcl-2-like protein 1 (Homo sapiens) (UniProt Q07817). Put plainly: Bcl-xL/Bim BH3 interaction blockers – biochemical, fluorescence polarization, HTS, primary screen (AID 2129).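 Also: 0% = DMSO wells and 100% = unlabeled Bim-BH3 peptide competitor; inhibitors lower millipolarization by displacing the labeled peptide.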 Conditions: GST-Bcl-xL / FITC-Bim BH3 peptide fluorescence polarization; at 10.9 µM; stronger effect = higher value. On the technique in general: Fluorescence polarisation rises when a labelled molecule tumbles more slowly, as on binding a larger partner.
On to `CP(=O)(Nc1ccccc1)Oc1ccc(F)cc1` (configuration not stated), for which the inhibition is inactive: -2.33%.

Take `O=[N+]([O-])c1cc([N+](=O)[O-])c(OC2CCCCC2O)c([N+](=O)[O-])c1` (configuration not stated): the inhibition is inactive: 8.87%.

Take `CCCCCOc1ccc(NP(C)(=O)Oc2ccc(Cl)cc2Cl)cc1` (configuration not stated): the inhibition was inactive: 1.07%.

For `CCN(CC)CCCOC(=O)C(O)(c1ccccc1)C1CCCCC1` (configuration not stated), the inhibition was inactive: -1.03%.

Regarding `CCOC(=O)c1ccc(NP(C)(=O)Oc2ccc(F)cc2)cc1` (configuration not stated), the inhibition was inactive: -0.66%.

In the case of `COc1ccc(OP(C)(=O)Nc2ccc(SC(F)(F)F)cc2)cc1` (configuration not stated), the inhibition was inactive: 7.85%.

For the compound `COc1ccc2c(c1O)-c1c(O)c(OC)cc3c1[C@H](C2)[N+](C)(C)CC3.O=[N+]([O-])c1cc([N+](=O)[O-])c([O-])c([N+](=O)[O-])c1[O-]`, the inhibition was inactive: 10.9%.

For `O=C(OC1CN2CCC1CC2)c1ccc([N+](=O)[O-])cc1` (configuration not stated), the inhibition is inactive: -0.11%.

For the compound `O=C(OCCN1CCN(CCOCc2ccccc2)CC1)C(O)(c1ccccc1)c1ccccc1`, the inhibition was inactive: 6.94%.

For `CP(=O)(Nc1ccccc1F)Oc1ccccc1` (configuration not stated), the inhibition is inactive: 1.35%.

As to `CC(C)c1ccc(OP(C)(=O)Nc2ccc(SC(F)(F)F)cc2)cc1` (configuration not stated), the inhibition is inactive: 3.02%.

Regarding `Cc1ccccc1NP(C)(=O)Nc1ccccc1C`, the inhibition was inactive: -0.12%.

Take `CP(=O)(Nc1ccc2c(c1)OCCO2)Oc1ccccc1` (configuration not stated): the inhibition is inactive: 7.77%.

For `CCOP(C)(=S)SCC(=O)NC(C)(CC)C(=O)O` (configuration not stated), the inhibition is inactive: 5.18%.

For `CP(=O)(Nc1ccc(SC(F)(F)F)cc1)Oc1ccc(F)cc1` (configuration not stated), the inhibition was inactive: 7.39%.

On to `O=[N+]([O-])c1cc([N+](=O)[O-])c(NCC2CCS(=O)(=O)C2)c([N+](=O)[O-])c1` (configuration not stated), for which the inhibition was inactive: 3.32%.

`CN(C)CCOC(=O)C(O)(c1ccccc1)C1CCCCC1` (configuration not stated): the inhibition was inactive: 4.35%.

For `COc1ccc(NP(C)(=O)Oc2ccccc2OC)cc1` (configuration not stated), the inhibition is inactive: 2.13%.

With `COc1ccc(OP(C)(=O)Nc2cccc(Br)c2)cc1` (configuration not stated), the inhibition was inactive: 6.9%.

Turning to `CCOC(=O)c1ccc(NP(C)(=O)Oc2ccc(Cl)cc2)cc1` (configuration not stated), the inhibition is inactive: 2.81%.

As for `CP(=O)(OC12CC3CC(CC(C3)C1)C2)OC12CC3CC(CC(C3)C1)C2`, the inhibition is inactive: -1.95%.

Turning to `Nc1ccc2c(ccc3cccnc32)n1.O=[N+]([O-])c1cc([N+](=O)[O-])c(O)c([N+](=O)[O-])c1`, the inhibition is inactive: 4.99%.

Take `CN(C)C(=O)c1c([N+](=O)[O-])cc([N+](=O)[O-])cc1[N+](=O)[O-]`: the inhibition is inactive: 10.7%.

For the compound `COc1ccccc1OP(C)(=O)Nc1ccccc1Br` (configuration not stated), the inhibition is inactive: 8.44%.

Consider `CC(C)(C)c1ccc(OP(C)(=O)O)cc1`, for which the inhibition is inactive: 0.83%.

Consider `CP(=O)(Nc1ccc(Cl)cc1)Oc1ccc(F)cc1` (configuration not stated), for which the inhibition was inactive: 1.43%.

As to `COc1ccccc1OP(C)(=O)Nc1c(C)n(C)n(-c2ccccc2)c1=O` (configuration not stated), the inhibition was inactive: 1.43%.

Take `O=C(OCCCN1CCCC1)C(O)(c1ccccc1)C1CCCCC1` (configuration not stated): the inhibition was inactive: 0.2%.

On to `CP(=O)(Oc1ccccc1)N1CCOC1=O` (configuration not stated), for which the inhibition is inactive: 1.97%.

As to `CCc1ccc(OP(C)(=O)Nc2cccnc2)cc1` (configuration not stated), the inhibition was inactive: 7.79%.

Turning to `CCN(CC)CC(O)COC(=O)C(O)(c1ccccc1)C1CCCCC1` (configuration not stated), the inhibition was inactive: -5.6%.

Regarding `COc1ccc(OP(C)(=O)Nc2ccc(Br)cc2)cc1` (configuration not stated), the inhibition is inactive: 5.16%.

`CP(=O)(Nc1ccccn1)Oc1ccccc1` (configuration not stated): the inhibition was inactive: 2.76%.

For the compound `COc1ccccc1OP(C)(=O)Nc1ccc(C)cc1C` (configuration not stated), the inhibition is inactive: 4.09%.

Turning to `Cc1c(NP(C)(=O)Oc2ccc(C(C)C)cc2)c(=O)n(-c2ccccc2)n1C` (configuration not stated), the inhibition was inactive: 15.5%.

On to `O=[N+]([O-])c1cc([N+](=O)[O-])c(Nc2ccccn2)c([N+](=O)[O-])c1`, for which the inhibition was inactive: 6.59%.

As to `COc1ccc(OP(C)(=O)Nc2ccccn2)cc1` (configuration not stated), the inhibition was inactive: 6.45%.

For the compound `CN(C)CCOC(=O)C(O)(c1ccccc1)C1CCCC1` (configuration not stated), the inhibition was inactive: -1.02%.

`COc1ccccc1OP(C)(=O)Nc1ccc(Br)cc1` (configuration not stated): the inhibition was inactive: -0.93%.

With `CP(=O)(Nc1ccc(Cl)cc1Cl)Oc1ccccc1` (configuration not stated), the inhibition was inactive: 5.23%.

As for `CP(=O)(OCCOc1ccccc1)OCCOc1ccccc1`, the inhibition was inactive: -1.89%.

For the compound `Cc1nc2ccc3ccccc3c2o1.O=[N+]([O-])c1cc([N+](=O)[O-])c(O)c([N+](=O)[O-])c1`, the inhibition was inactive: 3.98%.

As to `COc1ccccc1OP(C)(=O)Nc1ccc(C)c(C)c1` (configuration not stated), the inhibition was inactive: 5.43%.

Turning to `COc1ccc(OP(C)(=O)Nc2ccccc2Br)cc1` (configuration not stated), the inhibition is inactive: 4.12%.

In the case of `Cc1cc(C)cc(OP(C)(=O)Nc2cccc(C(F)(F)F)c2)c1` (configuration not stated), the inhibition is inactive: 4.18%.

On to `Cc1cc(C)cc(OP(C)(N)=O)c1` (configuration not stated), for which the inhibition is inactive: 4.04%.

As to `COc1ccccc1OP(C)(=O)Nc1cc(Cl)ccc1C` (configuration not stated), the inhibition was inactive: 6.86%.

Consider `COc1ccc(OP(C)(=O)Nc2cccc(F)c2)cc1` (configuration not stated), for which the inhibition was inactive: 2.43%.

Regarding `COc1ccccc1OP(C)(=O)Nc1ccc(C)cc1` (configuration not stated), the inhibition is inactive: 3.64%.

With `Cc1ccc(NP(C)(=O)Oc2ccccc2)c(C)c1` (configuration not stated), the inhibition was inactive: 2.59%.

As for `CCOC(=O)c1ccc(NP(C)(=O)Oc2ccccc2)cc1` (configuration not stated), the inhibition was inactive: 0.69%.

As to `O=[N+]([O-])c1ccc2c(c1)C=Nc1ccccc1O2`, the inhibition is inactive: 0.81%.

On to `CC(C)(C)c1ccc(OP(C)(=O)Nc2ccc(SC(F)(F)F)cc2)cc1` (configuration not stated), for which the inhibition is inactive: -1.24%.

As to `Cc1cccc(C)c1OP(C)(N)=O` (configuration not stated), the inhibition is inactive: 3.77%.

As for `O=[N+]([O-])c1cc([N+](=O)[O-])c(Nc2cccnc2)c([N+](=O)[O-])c1`, the inhibition is inactive: 6.23%.

For the compound `CCN(CC)CCCOC(=O)C(O)(c1ccccc1)c1ccccc1`, the inhibition is inactive: 0.13%.

In the case of `CP(=O)(Nc1ccccn1)Oc1ccc(Cl)cc1` (configuration not stated), the inhibition is inactive: 3.26%.

As to `CCOC(=O)c1ccc(NP(C)(=O)Oc2ccc(OC)cc2)cc1` (configuration not stated), the inhibition is inactive: 4.8%.

With `O=[N+]([O-])c1cc([N+](=O)[O-])c(O)c([N+](=O)[O-])c1.c1ccc(Oc2ccncc2)cc1`, the inhibition was inactive: -1.78%.

Consider `CCOP(C)(=S)SCC(=O)NC(C)C(=O)O` (configuration not stated), for which the inhibition was inactive: 6.65%.

Turning to `CP(=O)(NC(=O)Nc1ccccc1)Oc1ccccc1` (configuration not stated), the inhibition is inactive: 1.77%.

For `CCc1ccc(OP(C)(=O)N2CCN(c3ccc([N+](=O)[O-])cc3)CC2)cc1` (configuration not stated), the inhibition was inactive: -5.67%.

`Cc1cc(C)cc(OP(C)(=O)Nc2ccc(SC(F)(F)F)cc2)c1` (configuration not stated): the inhibition is inactive: 4.43%.

For the compound `Cc1cccc(C)c1OP(C)(=O)Nc1ccc(SC(F)(F)F)cc1` (configuration not stated), the inhibition was inactive: 5.73%.

For `CP(=O)(Nc1ccc(SC(F)(F)F)cc1)Oc1ccc(Cl)cc1` (configuration not stated), the inhibition is inactive: 6.71%.

On to `CP(=O)(Oc1ccccc1)OC(c1ccccc1)C(F)(F)F` (configuration not stated), for which the inhibition was inactive: 1.88%.

In the case of `CP(=O)(Nc1ccccc1Br)Oc1ccccc1` (configuration not stated), the inhibition is inactive: 2.35%.

For the compound `COc1ccccc1OP(C)(=O)Nc1ccccc1` (configuration not stated), the inhibition was inactive: -2.3%.

`CP(=S)(Nn1cnnc1)Oc1ccccc1` (configuration not stated): the inhibition was inactive: 4.44%.

For `CCCOc1ccc(NP(C)(=O)Oc2ccc(Cl)cc2)cc1` (configuration not stated), the inhibition is inactive: 1.61%.

`CP(=O)(Nc1ccc(SC(F)(F)F)cc1)Oc1ccccc1` (configuration not stated): the inhibition was inactive: 1.03%.

On to `COc1ccccc1OP(C)(=O)Nc1c(C)cccc1C` (configuration not stated), for which the inhibition was inactive: 5.76%.

As to `CN1CCCCC1COC(=O)C1(O)c2ccccc2CCc2ccccc21` (configuration not stated), the inhibition is inactive: -1.78%.

Turning to `CC1=C2N=C(C=C3N=C(C(C)=C4[N-][C@@](C)([C@@H]5N=C1[C@](C)(CCC(=O)NC[C@@H](C)OP(=O)([O-])O[C@H]1[C@@H](O)[C@@H](n6cnc7cc(C)c(C)cc76)O[C@@H]1CO)[C@H]5CC(N)=O)[C@@](C)(CC(N)=O)[C@@H]4CCC(N)=O)[C@@](C)(CC(N)=O)[C@@H]3CCC(N)=O)C(C)(C)[C@@H]2CCC(N)=O.[C-]#N.[Co+3]`, the inhibition was inactive: -4.13%.

As to `O=[N+]([O-])c1cc([N+](=O)[O-])c(Nc2nnnn2CCO)c([N+](=O)[O-])c1`, the inhibition is inactive: 3.99%.

With `CCOC(=O)C(CC)C1=NC(C)(C)Cc2ccccc21.O=[N+]([O-])c1cc([N+](=O)[O-])c(O)c([N+](=O)[O-])c1` (configuration not stated), the inhibition is inactive: 7.5%.

As to `Cc1nc2ccc3ccccc3c2s1.O=[N+]([O-])c1cc([N+](=O)[O-])c(O)c([N+](=O)[O-])c1`, the inhibition was inactive: 2.52%.

As to `O=[N+]([O-])c1cc([N+](=O)[O-])c(-c2cnn(-c3ccccc3)c2)c([N+](=O)[O-])c1`, the inhibition was inactive: 2.08%.

As to `O=[N+]([O-])c1cc([N+](=O)[O-])c(-n2nnc3ccccc32)c([N+](=O)[O-])c1`, the inhibition was inactive: 2.46%.

Turning to `Cc1ccc(C)c(NP(C)(=O)Oc2ccccc2)c1` (configuration not stated), the inhibition was inactive: 0.47%.

For `Cc1cc(C)cc(OP(C)(=O)Nc2ccccn2)c1` (configuration not stated), the inhibition was inactive: 3.97%.

As to `CP(=O)(Nc1cccc(Br)c1)Oc1ccccc1` (configuration not stated), the inhibition was inactive: 6.69%.

`CCOC(=O)c1ccc(NP(C)(=O)Oc2cc(C)cc(C)c2)cc1` (configuration not stated): the inhibition is inactive: 3.46%.

As to `Cc1cc(C)cc(OP(C)(=O)Nc2ccc(C)cc2C)c1` (configuration not stated), the inhibition was inactive: -3.64%.

As for `COc1ccccc1OP(C)(=O)Nc1cccc(Br)c1` (configuration not stated), the inhibition was inactive: -0.87%.

As to `CC1=NCCc2c1[nH]c1ccccc21.O=[N+]([O-])c1cc([N+](=O)[O-])c(O)c([N+](=O)[O-])c1`, the inhibition is inactive: 4.68%.

With `O=C(O)c1cccc(Nc2c([N+](=O)[O-])cc([N+](=O)[O-])cc2[N+](=O)[O-])c1`, the inhibition is inactive: 8.79%.

Broadly, the inhibition is the relative decrease from the control value, in per cent.
